Biological target: T1, Cytochrome P450 11B1, mitochondrial (Homo sapiens, UniProt P15538)
T1 sequence (P15538 whole entry): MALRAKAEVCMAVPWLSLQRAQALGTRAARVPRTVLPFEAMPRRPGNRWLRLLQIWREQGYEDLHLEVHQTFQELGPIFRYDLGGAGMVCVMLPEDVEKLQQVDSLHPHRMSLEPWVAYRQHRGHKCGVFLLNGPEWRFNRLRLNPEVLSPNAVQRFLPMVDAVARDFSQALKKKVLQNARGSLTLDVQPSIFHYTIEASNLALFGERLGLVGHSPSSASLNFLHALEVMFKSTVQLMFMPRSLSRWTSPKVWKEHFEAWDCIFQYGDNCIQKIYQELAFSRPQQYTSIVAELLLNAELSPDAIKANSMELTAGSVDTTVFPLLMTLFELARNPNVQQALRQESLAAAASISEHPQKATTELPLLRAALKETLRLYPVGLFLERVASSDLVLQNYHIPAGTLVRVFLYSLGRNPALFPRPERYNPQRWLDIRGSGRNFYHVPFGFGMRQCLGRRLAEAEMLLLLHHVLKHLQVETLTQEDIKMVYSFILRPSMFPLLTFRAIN
Test: CYP11B Assay
Settings: IC50 (nM)
Experimental: The enzyme activity was assayed by monitoring the conversion of deoxycorticosterone to corticosterone in the presence of inhibitor compounds. The product formation was monitored by HPTLC using a phosphoimager system.

Compound `N#Cc1ccc2c(c1)CCC2=Cc1cnc[nH]1` [Imidazolylmethyleneindane 5b] has an IC50 of 12.3 nM.

Reference: BindingDB's records for doi:10.1021/jm049600p (Saarland University, 2005)
